Results from patent US11786548B2, “Trace element compositions, methods of making and use” (priority 2020, dated 2023).

Test: Stability study of injectable trace element composition in parenteral nutrition admixtures (assay test for zinc, copper, selenium, manganese)
Assay type: physicochemical
Excerpt: In order to establish stability data for parenteral nutrition admixed with the injectable compositions of trace elements, we conducted a stability study of injectable trace element composition (trace elements injectable composition, USP) in parenteral nutrition admixtures (assay test); a pH study of parenteral nutrition (PN) admixtures upon addition of injectable trace element composition (trace elements injectable composition, USP); a compatibility study of injectable trace element composition (trace elements injectable composition, USP) in parenteral nutrition admixtures; and a reduced inoculation antimicrobial effectiveness study for injectable trace element composition (trace elements injectable composition, USP) in parenteral nutrition admixtures. […]

Structure (SMILES): O.O.O.O.O.O=S(=O)([O-])[O-].[Cu+2] [Copper, cupric sulfate pentahydrate]
- Assay Day 0: 101.8%
- Assay Day 7: 101.5%
- Assay Day 10: 101.0%
